# Results reported in paper PMC6805867 (2019).
# Assays:
# Conditions in all cases: broth microdilution, 2 × 10^6 CFU/mL in 1% peptone, 37 °C, 18–22 h, 100% inhibition of growth, performed three times
# [1] = system: Bacillus subtilis (KCTC 3068)
# [2] = system: Pseudomonas aeruginosa (KCTC 1637)
# [3] = system: Staphylococcus aureus (KCTC 1621)
# [4] = system: Escherichia coli (KCTC 1682)
smiles,measurement,setting,value
"CC[C@H](C)[C@H](NC(=O)CN)C(=O)NCC(=O)N[C@@H](C)C(=O)N[C@H](C(=O)N[C@@H](CC(C)C)C(=O)N[C@@H](CCCCN)C(=O)N[C@H](C(=O)N[C@@H](CC(C)C)C(=O)N[C@H](C(=O)N[C@H](C(=O)NCC(=O)N[C@@H](CC(C)C)C(=O)N1CCC[C@H]1C(=O)N[C@@H](C)C(=O)N[C@@H](CC(C)C)C(=O)N[C@H](C(=O)N[C@@H](CO)C(=O)N[C@@H](Cc1c[nH]c2ccccc12)C(=O)N[C@H](C(=O)N[C@@H](CCCCN)C(=O)N[C@@H](CCCNC(=N)N)C(=O)N[C@@H](CCCCN)C(=O)N[C@@H](CCCNC(=N)N)C(=O)N[C@@H](CCC(N)=O)C(=O)N[C@@H](CCC(N)=O)C(N)=O)[C@@H](C)CC)[C@@H](C)CC)[C@@H](C)O)[C@@H](C)O)C(C)C)C(C)C [melittin, reference compound]",MIC Bacillus subtilis (KCTC 3068),[1],8 µg/mL
same,MIC Pseudomonas aeruginosa (KCTC 1637),[2],16 µg/mL
same,MIC Staphylococcus aureus (KCTC 1621),[3],4 µg/mL
same,MIC Escherichia coli (KCTC 1682),[4],4 µg/mL
